Like-named read-outs stand apart in the source and are kept apart here. Some results are limits rather than exact numbers.

The test system of test [1] is cancer cell lines with wild-type p53 / mutated or deleted p53 (ATCC). The experiment in a line: Cell growth assay (WST-8), other cancer cell lines. In kind it is cell-based.
For test [2], the system named is Isogenic HCT-116 colon cancer cell lines. Put plainly: cells. In kind it is cell-based. The note with it: Homo sapiens.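 Further: cells grown in 96-well plates in McCoy's 5A medium with 10% FBS, exposed to compound for 4 days.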
Setting [3] is: Homo sapiens, PC-3, read-out: PC-3 (deleted p53) IC50.

As to `CC(C)(C)C[C@H]1N[C@@H](C(=O)NC2CCC(O)CC2)[C@H](c2cccc(Cl)c2F)[C@@]12C(=O)Nc1cc(F)c(F)cc12` (stereo partly shown) [MI-786], the IC50 in test [1] (setting [3]) was determined as 14400 nM; in test [1] (read-out: LNCAP (p53 wild-type) IC50), 1200 nM.
Regarding `CC(C)(C)C[C@H]1N[C@@H](C(=O)NC2CCC(O)CC2)[C@H](c2cccc(Cl)c2F)[C@@]12C(=O)Nc1cc(F)ccc12` (stereo partly shown) [MI-7105], the IC50 in test [2] (HCT-116, read-out: HCT-116 (p53-/-) IC50) was more than 10000 nM; in test [2] (HCT-116, read-out: HCT-116 (p53 wild-type) IC50), less than 3000 nM; in test [1] (Homo sapiens, LNCaP, read-out: LNCAP (p53 wild-type) IC50), less than 3000 nM; in test [1] (setting [3]), more than 10000 nM; in test [1] (Homo sapiens, SJSA-1, read-out: SJSA-1 (p53 wild-type) IC50), less than 3000 nM.

The record behind these values is patent US9079913B2, “Spiro-oxindole MDM2 antagonists” (The Regents of the University of Michigan, priority 2009, dated 2015).
